# Tests used:
# Fibrosarcoma cells = settings: in BME, 37° C., 5% CO2, 30 minutes, washed with PBS
# [1] = Fluorescence titration with Zn^+2; settings: ethanolic solution 1 mM
# [2] = Fluorescence titration with Ca^+2; settings: ethanolic solution 1 mM
# [3] = Fluorescence titration with Mg^+2; settings: ethanolic solution 1 mM
# [4] = Fluorescence titration with VO^+2
# [5] = Fluorescence titration with Cu^+2
# [6] = Fluorescence titration with Ni^+2; settings: ethanolic solution 1 mM, first addition
# [7] = Fluorescence titration with Co^+2; settings: ethanolic solution 1 mM, first addition
# [8] = Fluorescence titration with Mn^+2; settings: ethanolic solution 1 mM, first addition
# [9] = Fluorescence titration with SrCl2; settings: ethanolic solution 1 mM, after addition of 1 equivalent SrCl2
# [10] = test system: Zn^+2 in fibrosarcoma cells; test: Imaging of Zn^+2 in fibrosarcoma cells; assay type: cell-based
# Slices of rat brain = test: Penetration into rat brain slices, fluorescence microscopy; settings: slices 8-30 μm, in BME, one hour, washed with PBS
Substance,uptake into cells (Fibrosarcoma cells),Zn^+2 concentration that can be sensed (down to) [1],"increase in fluorescence intensity (fold, in words) ([1]; one equivalent of Zn^+2)",effect of Ca^+2 on fluorescent intensity [2],effect of Mg^+2 on fluorescent intensity [3],vanadyl concentration that can be sensed (down to) [4],VO^+2 equivalents at which the new peak at 500 nm plateaus ([4]; ethanolic solution 1 mM),effect of VO^+2 on emission intensity at the 400 nm peak ([4]; ethanolic solution 1 mM),cupric concentration that can be sensed (down to) [5],Cu^+2 equivalents at which the new peak at 500 nm plateaus ([5]; ethanolic solution 1 mM),effect of Cu^+2 on intensity of the peaks at 400 and 575 nm ([5]; ethanolic solution 1 mM),effect of Ni^+2 on emission intensity [6],effect of Co^+2 on emission intensity [7],effect of Mn^+2 on emission intensity [8],increase in fluorescence intensity [9],"fluorescence intensity in cells with added zinc chloride solution ([10]; 100 μl, 50 μM in BME, 0.5 up to 5 μl of added zinc solution, 37° C., 5% carbon dioxide)",fluorescence intensity within the cells with increased amounts of Zn^+2 ([10]; BME solutions),penetration of brain cell types and regions (Slices of rat brain)
"diethyl 4-(1,3-diphenyl-5-pyrazolyl) phenoxy methylphosphonate",taken up in the cytoplasm within the fibrosarcoma cells,,,,,,,,,,,,,,,,,
diethyl 8-quinolyloxy methylphosphonate,taken up in the cytoplasm within the fibrosarcoma cells,60 ηM,four-fold increase,no significant effect,no significant effect,10^−6 M,0.5 eq,drcrease in the emission intensity,10^−6 M,0.4 eq,decrease in intensity,large decrease in emission intensity,large decrease in emission intensity,large decrease in emission intensity,50%,,,
"diethyl (9-anthracyl)-N-2,4-dichlorobenzylamine-methylphosphonate",taken up in the cytoplasm within the fibrosarcoma cells,,,,,,,,,,,,,,,"progressive, significant and reproducible increases in fluorescence intensity",progressive increase in fluorescence intensity within the cells,went into neurons and glial cells

# Source: patent US7629379B2, “Substituted phosphonate fluorescent sensors and use thereof” (Queen Mary & Westfield College, priority 2003, dated 2009)
